In assay [1] the target is T1, Adenosine receptor A1 (Rattus norvegicus, UniProt P25099). Briefly: Ability to displace radioligand [3H]- DPCPX from adenosine A1 receptor on rat cortical membrane in the presence of 1 mM of GTP.
The target of assay [2] is T1, Adenosine receptor A1.

Protein sequences, listed by entry. Tags and fused reporters are not part of them.
UniProt P25099, whole entry: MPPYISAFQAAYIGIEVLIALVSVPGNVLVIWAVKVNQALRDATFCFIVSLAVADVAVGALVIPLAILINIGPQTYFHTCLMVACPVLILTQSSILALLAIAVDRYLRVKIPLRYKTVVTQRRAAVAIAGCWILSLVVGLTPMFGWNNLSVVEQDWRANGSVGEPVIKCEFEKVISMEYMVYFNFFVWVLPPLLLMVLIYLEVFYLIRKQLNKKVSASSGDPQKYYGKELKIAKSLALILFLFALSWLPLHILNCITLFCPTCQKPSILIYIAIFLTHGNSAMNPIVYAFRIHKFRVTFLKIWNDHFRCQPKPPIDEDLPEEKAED

`Nc1ncnc2c1ncn2[C@@H]1O[C@H](C(=O)NC2CCC2)[C@@H](O)[C@H]1O`: the results for the Ki at Adenosine receptor A1 [1] and at Adenosine receptor A1 [2] were 0.172 µM and 0.043 µM, respectively.

In general, Ki refers to the dissociation constant of the complex between target and ligand, obtained from inhibition or displacement.

Values taken from ChEMBL document CHEMBL1132702, “5'-N-substituted carboxamidoadenosines as agonists for adenosine receptors” (J Med Chem, 1999).
